Here are results for two substances from publication PMC5701006.

Chains of the proteins cited; added tags and fusions are not shown. Residues count along the entry.
UniProt P37173, 23-166: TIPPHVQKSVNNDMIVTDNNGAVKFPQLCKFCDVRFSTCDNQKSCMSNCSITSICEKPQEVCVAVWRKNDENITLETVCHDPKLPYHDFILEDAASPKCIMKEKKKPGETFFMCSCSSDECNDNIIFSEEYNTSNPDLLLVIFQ

The target of experiment [1] is Heligmosomoides polygyrus TGF-β mimic (Hp-TGM), recombinant (Heligmosomoides polygyrus). Nature of the experiment: SPR; BIAcore 3000; biotinylated Avi-hTGF-β3 or Hp-TGM captured on streptavidin-coated CM5 chips (400-500 RU); two-fold dilutions of analyte (hTβRII from 13 µM downwards, r-betaglycan) in HBS-EP, 100 µL/min, room temperature; global fit, simple 1:1 model. On the technique in general: SPR reads the build-up and loss of mass on a sensor chip optically.

Experiment [2] concerns the target biotinylated human TGF-β3 bearing an N-terminal Avitag (Avi-hTGF-β3) (human). Described as above.
Experiment [3] addresses H. polygyrus TGF-β mimic (Hp-TGM), recombinant, biotinylated (Heligmosomoides polygyrus). The experiment can be described thus: SPR; BIAcore 3000; biotinylated Avi-hTGF-β3 or Hp-TGM captured on streptavidin-coated CM5 chips at 400-500 RU; two-fold dilutions of analyte (hTβRII from 13 µM downwards; r-betaglycan) in HBS-EP at 100 µL/min, room temperature; global fit, simple 1:1 model.

Experiment [4] concerns the target biotinylated Avi-hTGF-β3 (human TGF-β3 bearing an N-terminal 15 amino acid Avitag followed by an EY linker) (human). The experiment is described as above.

“human TGF-β type II receptor extracellular domain (hTβRII) (from UniProt P37173 23-166) (domain or fragment)”: the Kd in experiment [1] came out at 2960 nM; in experiment [2], 294 nM.
For “human TGF-β type II receptor extracellular domain (from UniProt P37173 23-166)”, in experiment [3], the koff worked out at 0.0521 s⁻¹ and the association rate constant (kon) turned out to be 17600 M⁻¹ s⁻¹. In experiment [4], this substance came in with a koff of 0.0773 s⁻¹ and a kon of 265000 M⁻¹ s⁻¹.

As a reminder, the Kd is the equilibrium constant for the complex coming apart. One may read the koff as the rate constant with which the complex falls apart. As a reminder, the kon is the second-order rate constant of association.
